Source: patent publication US20140349922A1 (priority 2011, published 2014)

Columns and labels:
[1] = Pharmacokinetic profile of OXM, PEG10-Fmoc-OXM and PEG20-Fmoc-OXM after single SC injection in rats; type: in vivo, male Wistar rats; conditions: […] peptide content
[2] = Pharmacokinetic study of OXM and PEG40-Fmoc-OXM after single IV or SC dose in rats; type: in vivo, male Wistar rats

Oxyntomodulin [OXM]
T 1/2 term. [1]: 9 min | F % (bioavailability) ([2]; IV): 100% | MRT ([2]; IV): 24.8 min | T 1/2 term. ([2]; IV): 26.4 min | F % (bioavailability) ([2]; SC): 4.37% | MRT ([2]; SC): 54.8 min | T 1/2 term. ([2]; SC): 41.4 min
